# Measured values reported in publication PMC3385512 (Science Translational Medicine, 2012).
# System: phosphorylation of EML4-ALK
# Test: phospho-ALK immunoblotting in Ba/F3 cells
# Assay type: cell-based
# Settings: EML4-ALK harboring any of the four resistant mutations versus wild type; 1 hour
compound,measurement,value
C[C@@H](Oc1cc(-c2cnn(C3CCNCC3)c2)cnc1N)c1c(Cl)ccc(F)c1Cl [crizotinib],suppression of EML4-ALK phosphorylation,less effective
